Ab-14 heavy chain CDR variants: yeast mating affinities

Values reported by Li et al. 2023, doi:10.1038/s41467-023-39022-2 (FLAb copy).

Binding partner: SARS-CoV-2 spike HR2 peptide, sequence PDVDLGDISGINAS.

Ab-14 is the parent antibody, in scFv form: VH, then a (GGGGS)3 linker, then VL. The light chain is unchanged in all variants.
VH: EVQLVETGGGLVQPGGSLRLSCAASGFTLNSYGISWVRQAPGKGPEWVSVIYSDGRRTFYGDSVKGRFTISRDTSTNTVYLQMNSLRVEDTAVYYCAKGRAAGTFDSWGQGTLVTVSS
VL: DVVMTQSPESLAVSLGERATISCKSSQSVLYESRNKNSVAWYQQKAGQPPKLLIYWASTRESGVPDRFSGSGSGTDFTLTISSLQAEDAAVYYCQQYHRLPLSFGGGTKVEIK

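Phage display of a naive human antibody library on the peptide gave the parent. The variants were designed computationally from a first round of random CDR variants and then made and measured. Group labels follow the data file (Ctrl: baseline library sampled from a position-specific scoring matrix, with some repeated check sequences; Rand: our label for a block that the file lists under HC and that is probably the random mutants of the ten best first-round binders; En: ensemble of fine-tuned language models; GP: Gaussian process model; GPLM: also part of the Gaussian process libraries; HC: hill climbing; Gen: genetic algorithm; Gibbs: Gibbs sampling; a sequence that several methods proposed may carry one label only). Affinity was read by AlphaSeq, a pooled yeast mating assay with surface-displayed partners. The frequency of each diploid, read from paired DNA barcodes, reflects how well the two displayed proteins bind. Scores were corrected for input abundance and mapped to Kd with protein pairs of known affinity run in the same pool. The assay was run in six technical replicates.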

Variants are written as CDR1, CDR2 and CDR3 of the heavy chain (limits as in the source). Parent: GFTLNSYGIS, VIYSDGRRTFYGDSVK, GRAAGTFDS.
The Kd shown is the geometric mean over detected replicates; a lower Kd is a better binder.
"no signal" marks a missing value. The strain was present, yet no cells mated with the target were sequenced in any replicate, which points to weak or no binding.
The authors averaged sequences with at least three values out of six and counted those with two or fewer as poor binders.
The range of this assay differs from that of the first round, and the authors advise against merging the two.
Of ten entries with the parent sequence, four were seen in most replicates (averages 2.2 nM to 240 nM), three in one and three in none, so single entries are noisy.
Three control strains display no target. For all heavy chain designs, 1% of the pairings with them gave a signal, with a median of 120 nM and one signal in twenty below 7.0 nM, so weak values seen in few replicates may be background. Also given: how often the same scFv was detected with the empty control strains.

{"CDR-H1": "GFTLNSYGYS", "CDR-H2": "VIYSDGRRTFYGDSVK", "CDR-H3": "GRAAKTFDS", "group": "Ctrl", "Kd": "no signal", "replicates with signal": "0/6", "signal with controls": "0/18"}
{"CDR-H1": "GFDLNEFGIS", "CDR-H2": "VIYADGRQTFYTDNVK", "CDR-H3": "GGNQGTFVL", "group": "En_Gibbs", "Kd": "no signal", "replicates with signal": "0/6", "signal with controls": "1/18"}
{"CDR-H1": "GFTLNEYGIS", "CDR-H2": "VIYADGRRTFYGDSVK", "CDR-H3": "GQAAGTFDS", "group": "GPLM_Gen", "Kd": "480 pM", "replicates with signal": "6/6", "signal with controls": "0/18"}
{"CDR-H1": "GFNLDEYGIS", "CDR-H2": "VIYADGRRTFYADSVK", "CDR-H3": "GQVAGTFLI", "group": "En_HC", "Kd": "1.0 nM", "replicates with signal": "6/6", "signal with controls": "0/18"}
{"CDR-H1": "GFSLNSYGIS", "CDR-H2": "VIYADGRRTFYGDSVK", "CDR-H3": "GRAADTFDS", "group": "GP_HC", "Kd": "no signal", "replicates with signal": "0/6", "signal with controls": "0/18"}
{"CDR-H1": "GFDLNEYGIS", "CDR-H2": "VIYADGIRTAYSDQVK", "CDR-H3": "DRDGIVILF", "group": "En_Gibbs", "Kd": "7.4 nM", "replicates with signal": "6/6", "signal with controls": "0/18"}
{"CDR-H1": "GFTLNSYGIV", "CDR-H2": "VIYSDGRRTFYGDSVK", "CDR-H3": "GRAACTFDS", "group": "Ctrl", "Kd": "no signal", "replicates with signal": "0/6", "signal with controls": "0/18"}
{"CDR-H1": "GFDLNEYGIS", "CDR-H2": "VIYADGKRTSYDDSVK", "CDR-H3": "GQLAGTFDQ", "group": "En_HC", "Kd": "1.4 nM", "replicates with signal": "6/6", "signal with controls": "0/18"}
{"CDR-H1": "GFDLNSYGIS", "CDR-H2": "VIYSDGRRTFYSDSVK", "CDR-H3": "GNAAGTFDS", "group": "GP_Gen", "Kd": "4.4 nM", "replicates with signal": "6/6", "signal with controls": "1/18"}
{"CDR-H1": "GFQLDEYGIS", "CDR-H2": "VIYADGRRTFYSDSVK", "CDR-H3": "GEVAGTFDS", "group": "En_HC", "Kd": "650 pM", "replicates with signal": "6/6", "signal with controls": "0/18"}
{"CDR-H1": "GATLNEYGIS", "CDR-H2": "VIYSDGRRTFYGDSRK", "CDR-H3": "GRAAGTFDS", "group": "Ctrl", "Kd": "no signal", "replicates with signal": "0/6", "signal with controls": "0/18"}
{"CDR-H1": "GETLNSYGIS", "CDR-H2": "VIYSDGRRTFYGDSVK", "CDR-H3": "GRQAGTFDS", "group": "Ctrl", "Kd": "26 nM", "replicates with signal": "5/6", "signal with controls": "1/18"}
{"CDR-H1": "GFNLNSYGIS", "CDR-H2": "VIYSDGRRTFYIDSVK", "CDR-H3": "GRVAGTFDS", "group": "GPLM_Gibbs", "Kd": "120 pM", "replicates with signal": "2/6", "signal with controls": "0/18"}
{"CDR-H1": "KFNLNEYGIS", "CDR-H2": "VIYSDGRRTFYTDSVK", "CDR-H3": "GRFAGTFDS", "group": "GPLM_HC", "Kd": "110 nM", "replicates with signal": "5/6", "signal with controls": "2/18"}
{"CDR-H1": "GFSLNEYGIS", "CDR-H2": "VIYSDGRRTFYHDSVK", "CDR-H3": "GRTAGTFDT", "group": "GP_Gen", "Kd": "140 pM", "replicates with signal": "6/6", "signal with controls": "0/18"}
{"CDR-H1": "GFTLNDYGIS", "CDR-H2": "VIYSDGRRTAYGDRVK", "CDR-H3": "GRAAGRFDE", "group": "Ctrl", "Kd": "no signal", "replicates with signal": "0/6", "signal with controls": "0/18"}
{"CDR-H1": "GPTLNSYGIS", "CDR-H2": "VIYSDGNRTFYCDSVK", "CDR-H3": "GRAGGTFDS", "group": "Rand", "Kd": "no signal", "replicates with signal": "0/6", "signal with controls": "0/18"}
{"CDR-H1": "GFDLNEYGIS", "CDR-H2": "VIYADGMRTYYADDVK", "CDR-H3": "GNQAGTFDV", "group": "En_Gen", "Kd": "810 pM", "replicates with signal": "6/6", "signal with controls": "0/18"}
{"CDR-H1": "GFTLNSYGIS", "CDR-H2": "VIYSDGRRTFYTDSVK", "CDR-H3": "GEAAGTFDS", "group": "GPLM_Gen", "Kd": "12 nM", "replicates with signal": "6/6", "signal with controls": "0/18"}
{"CDR-H1": "GFDLNEYGIS", "CDR-H2": "VIYADGMRTFYADDVK", "CDR-H3": "GENAGTFDL", "group": "En_Gen", "Kd": "240 pM", "replicates with signal": "6/6", "signal with controls": "0/18"}
{"CDR-H1": "GDVLDEYGIS", "CDR-H2": "VIYADGRRTFYTQDVK", "CDR-H3": "GKKAGSLSV", "group": "En_Gibbs", "Kd": "230 nM", "replicates with signal": "1/6", "signal with controls": "0/18"}
{"CDR-H1": "QFSLNSYGIS", "CDR-H2": "VIYSDGRRTFYADSVK", "CDR-H3": "GNVAGTFDS", "group": "GP_Gibbs", "Kd": "1.7 nM", "replicates with signal": "6/6", "signal with controls": "1/18"}
{"CDR-H1": "KFTLNSYGIS", "CDR-H2": "VIYSDGRRTFYSDSVK", "CDR-H3": "GQLAGTFDS", "group": "GPLM_HC", "Kd": "6.4 nM", "replicates with signal": "6/6", "signal with controls": "0/18"}
{"CDR-H1": "GKTLESYGIS", "CDR-H2": "VIYSDGRRTFYADDVK", "CDR-H3": "GRAAGTFDS", "group": "GP_Gibbs", "Kd": "no signal", "replicates with signal": "0/6", "signal with controls": "0/18"}
{"CDR-H1": "GFDLDEYGIS", "CDR-H2": "VIYADGQRTFYADSVK", "CDR-H3": "GTNAGTFDV", "group": "En_HC", "Kd": "1.7 nM", "replicates with signal": "6/6", "signal with controls": "0/18"}
{"CDR-H1": "GFDLNEYGIS", "CDR-H2": "VIYADGRRTFYADSVK", "CDR-H3": "GNNAGTFIT", "group": "En_HC", "Kd": "260 nM", "replicates with signal": "2/6", "signal with controls": "0/18"}
{"CDR-H1": "GFTLNEYGIS", "CDR-H2": "VIYSDGRRTFYTDSVK", "CDR-H3": "GRFAGTFDF", "group": "GPLM_HC", "Kd": "no signal", "replicates with signal": "0/6", "signal with controls": "0/18"}
{"CDR-H1": "GFTLNSYGIS", "CDR-H2": "VIYSDGRRTFYSDSVK", "CDR-H3": "GRAGVTFDT", "group": "GPLM_HC", "Kd": "no signal", "replicates with signal": "0/6", "signal with controls": "0/18"}
{"CDR-H1": "GFDLNEYGIS", "CDR-H2": "VIYADGRRTQYIDSVK", "CDR-H3": "GNQAGTFDT", "group": "En_HC", "Kd": "900 pM", "replicates with signal": "6/6", "signal with controls": "0/18"}
{"CDR-H1": "GFSLDEYGIS", "CDR-H2": "VIYADGNRRVYIDKVK", "CDR-H3": "GNYGGDFIE", "group": "En_Gibbs", "Kd": "870 nM", "replicates with signal": "1/6", "signal with controls": "1/18"}
{"CDR-H1": "MFNLNSYGIS", "CDR-H2": "VIYSDGRRTFYGDSVK", "CDR-H3": "GQTAGTFDS", "group": "GP_Gen", "Kd": "190 nM", "replicates with signal": "2/6", "signal with controls": "0/18"}
{"CDR-H1": "GFTLNEYGIS", "CDR-H2": "VIYSDGRRTFYGDSVK", "CDR-H3": "GRAAGTFAQ", "group": "GP_HC", "Kd": "no signal", "replicates with signal": "0/6", "signal with controls": "0/18"}